Key:
SUM159 = assay: Cell proliferation assay (WST-1), iNOS inhibitors; type: cell-based, human; settings: 1, 2 and 4 mM, 96 hrs
Description: (§1) Cell Culture. Mesenchymal-like triple negative breast cancer cell lines, MDA-MB-231 and SUM159, were purchased from American Type Culture Collection and Asterand, respectively. […] Mammosphere forming efficiency (MSFE), cell proliferation and migration assays are detailed below. Cell culture and mammosphere forming efficiency assay. […] After treatment with either 1, 2, and 4 mM (1400 W and L-NMMA) or 1, 2, and 5 mM L-NAME for 96 hrs, primary mammospheres (MS) were scanned and counted using a colony counter (GelCount, Oxford Optronicx Abington, UNITED KINGDOM). Primary MSFE was evaluated dividing mammosphere number by cell number. […] Secondary MS were scanned, counted and secondary MSFE were assessed. […] Proliferation rate was determined by adding premixed WST-1 reagent (Clontech). After incubation at 37° C. for 3 hrs, absorbance was read at 450 nm (reference wavelength 690 nm).

MDA-MB-231 = assay: Cell proliferation assay (WST-1), iNOS inhibitors; type: cell-based, human; settings: 1, 2 and 4 mM, 96 hrs
Description: as §1

CC(=N)NCc1cccc(CN)c1 [1400 W, N-[[3-(aminomethyl)phenyl]methyl]-ethanimidamide]
proliferation (SUM159): significantly decrease proliferation | proliferation (MDA-MB-231): significantly decrease proliferation

Source: patent publication US11357850B2, “Methods for treating breast cancer using INOS-inhibitory compositions” (The Methodist Hospital, priority 2014, dated 2022)
